Data on one substance can be found in patent US20100286027A1, “ANTI-BACTERIAL COMPOSITIONS” (priority 2008, published 2010).

The test system of this assay is L. monocytogenes. Briefly: Bacterial growth inhibition (FIG. 15). The assay is classed as cell-based, Listeria monocytogenes. The settings on record: FIG. 15 Panel C. From the text: Nod1 inhibited E. coli growth (Panel B) and L. monocytogenes growth was inhibited by Nod1, Nod2, Nod2 3020insC and CIAS1 (Panel C).

On to “CIAS1: LRR protein named only in the FIG. 15 legend”, for which the L. monocytogenes growth entry is listed as “inhibited”.
